Laboratory results as given in US12036229B2, “Use of phosphorylated heptose compounds” (NATIONAL RESEARCH COUNCIL OF CANADA, priority 2017, dated 2024).

Legend:
[1] = test system: Human macrophage cells (THP-1); assay: Stimulation of human macrophages (THP-1), IL-8 by ELISA; conditions: 30 μM or 150 μM, THP-1, 20 minutes in permeabilization buffer, then 6 hours; FIG. 11
[2] = test system: Human colonic epithelial cells (HCT 116); assay: Stimulation of human colonic epithelial cells (HCT 116), IL-8 by ELISA; conditions: 10 μg/mL, HCT 116 WT or TIFA KO, 20 minutes in permeabilization buffer, then 6 hours; FIG. 8
[3] = test system: CT26 cells (colon carcinoma from BALB/c mice); assay: CT26 tumour model in BALB/c mice; assay type: in vivo; conditions: intraperitoneal; HMP 200 μg per day D10, D11, D12; LPS 1x at 3 mg/kg; 11 day period, vs PBS; FIG. 14c
[4] = test system: NF-κB-driven luciferase reporter; assay: NF-κB-driven luciferase reporter assay in HEK 293T cells; conditions: 20 μg/mL, 20 minutes in permeabilization buffer (5 μg/mL digitonin), then 3.5 hours in complete medium; FIG. 7
[5] = test system: serum KC; assay: In vivo administration, serum KC levels; conditions: compared to vehicle PBS and control JS9 Man-1β-P

For “D-glycero-D-manno-heptopyranose 1β-phosphate”, the “cytokine expression (IL-8 levels in culture supernatants)” value [1] was “can drive cytokine expression in vitro”, the “cytokine expression (IL-8 levels in culture supernatants)” value [2] was “can drive cytokine expression in vitro” and the “change in tumour volume relative to day 10 (rate of tumour growth)” value [3] was “significantly reduced the rate of tumour growth”. For the same substance, the “NF-κB stimulation (luciferase assay)” value [4] was “can immunomodulate via NF-κB stimulation in vitro”, the “serum KC levels” value ([5]; 500 μg/mouse intraperitoneally, 3 h post-injection, FIG. 12) was “induced serum KC levels” and the “serum KC levels” value ([5]; 500 μg/mouse intravenously, 1 h post-injection, FIG. 13) was “induced serum KC levels”.
